pIC50: −log10 of the molar value.
Target: mGluR4 (Homo sapiens, UniProt Q14833)
Assay: mGluR4 Binding Assay
Design: expressed in transfected cells; host or cells: CHO cells
Conditions: membranes from CHO cells expressing human mGluR4; 20 uM L-AP4; 7 nM radiotracer [3H]-N-(4-{[(2-Chlorophenyl)amino]sulfonyl}phenyl)pyridine-2-carboxamide

Chains of the proteins cited; added tags and fusions are not shown. Residues count along the entry.
UniProt Q14833, 33-912: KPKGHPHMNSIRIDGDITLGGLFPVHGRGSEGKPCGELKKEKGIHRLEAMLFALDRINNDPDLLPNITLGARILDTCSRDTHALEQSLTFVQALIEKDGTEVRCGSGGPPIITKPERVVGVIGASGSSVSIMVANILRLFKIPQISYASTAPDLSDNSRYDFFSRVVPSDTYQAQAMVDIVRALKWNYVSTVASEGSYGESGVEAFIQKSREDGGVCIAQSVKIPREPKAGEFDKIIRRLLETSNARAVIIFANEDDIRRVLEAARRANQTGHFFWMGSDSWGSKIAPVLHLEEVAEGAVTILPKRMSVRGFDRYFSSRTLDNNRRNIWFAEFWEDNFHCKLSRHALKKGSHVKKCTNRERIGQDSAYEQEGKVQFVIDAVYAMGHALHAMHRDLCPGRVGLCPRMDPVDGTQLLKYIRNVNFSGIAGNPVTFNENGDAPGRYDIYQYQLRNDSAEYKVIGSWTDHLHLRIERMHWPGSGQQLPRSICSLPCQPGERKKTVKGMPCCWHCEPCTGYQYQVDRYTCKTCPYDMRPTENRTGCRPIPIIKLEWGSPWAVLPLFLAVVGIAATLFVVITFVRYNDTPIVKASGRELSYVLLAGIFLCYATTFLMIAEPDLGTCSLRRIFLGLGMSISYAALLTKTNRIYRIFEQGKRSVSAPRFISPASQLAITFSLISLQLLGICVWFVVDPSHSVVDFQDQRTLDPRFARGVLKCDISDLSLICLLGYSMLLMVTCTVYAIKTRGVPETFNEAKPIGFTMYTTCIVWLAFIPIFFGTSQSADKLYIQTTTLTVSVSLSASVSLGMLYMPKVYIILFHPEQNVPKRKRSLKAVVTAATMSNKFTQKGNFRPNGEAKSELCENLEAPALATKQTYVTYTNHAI

pIC50: 7.44
Compound: O=C(Nc1ccc(N2C(=O)c3cccc(F)c3C2=O)c(Cl)c1)c1ccccn1 [Example 10, N-[3-chloro-4-(4-fluoro-1,3-dioxo-1,3-dihydro-2H-isoindol-2-yl)phenyl]pyridine-2-carboxamide]

Reference: patent publication US20110318266A1, “PHTHALIMIDE DERIVATIVE METABOTROPIC GLUTAMATE R4 LIGANDS” (priority 2008, published 2011)
